Laboratory results published in patent US9663525B2, “Pyrazolopyrimidinyl inhibitors of ubiquitin-activating enzyme” (Millennium Pharmaceuticals, Inc., priority 2012, dated 2017).

The chains behind the UniProt entries cited, without tags or fusion partners. Where a name states a change or a piece, a line headed by the entry shows the natural chain unless it says otherwise.
UniProt P22314: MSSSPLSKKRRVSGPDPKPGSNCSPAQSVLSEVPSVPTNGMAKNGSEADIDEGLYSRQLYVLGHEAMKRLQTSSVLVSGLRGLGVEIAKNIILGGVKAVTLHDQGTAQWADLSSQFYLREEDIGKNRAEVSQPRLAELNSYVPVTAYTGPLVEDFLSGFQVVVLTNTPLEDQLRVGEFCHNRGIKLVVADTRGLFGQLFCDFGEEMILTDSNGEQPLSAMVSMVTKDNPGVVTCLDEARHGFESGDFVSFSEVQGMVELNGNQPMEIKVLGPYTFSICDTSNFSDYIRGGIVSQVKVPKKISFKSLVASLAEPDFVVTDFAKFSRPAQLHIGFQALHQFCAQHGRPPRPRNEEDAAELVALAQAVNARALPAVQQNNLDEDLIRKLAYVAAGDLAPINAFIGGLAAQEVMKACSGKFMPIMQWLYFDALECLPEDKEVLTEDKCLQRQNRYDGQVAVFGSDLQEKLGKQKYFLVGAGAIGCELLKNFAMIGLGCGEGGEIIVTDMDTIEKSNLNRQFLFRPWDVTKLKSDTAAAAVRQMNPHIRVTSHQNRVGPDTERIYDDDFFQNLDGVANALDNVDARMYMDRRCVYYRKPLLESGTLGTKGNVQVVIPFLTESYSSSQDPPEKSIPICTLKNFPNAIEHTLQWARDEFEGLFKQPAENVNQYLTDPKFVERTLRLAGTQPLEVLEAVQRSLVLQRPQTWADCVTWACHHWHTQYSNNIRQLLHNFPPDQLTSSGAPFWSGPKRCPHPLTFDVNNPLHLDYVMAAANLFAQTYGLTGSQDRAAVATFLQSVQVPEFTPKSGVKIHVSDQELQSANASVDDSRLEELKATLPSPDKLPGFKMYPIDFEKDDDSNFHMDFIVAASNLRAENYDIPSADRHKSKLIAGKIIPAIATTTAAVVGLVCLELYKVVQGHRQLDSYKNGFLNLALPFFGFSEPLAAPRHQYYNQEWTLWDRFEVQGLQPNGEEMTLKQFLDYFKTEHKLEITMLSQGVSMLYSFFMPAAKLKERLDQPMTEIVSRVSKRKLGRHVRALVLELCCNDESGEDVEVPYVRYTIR

Biological target: recombinant human UAE (Homo sapiens (Human), UniProt P22314)
Assay: Ubiquitin Activating Enzyme (UAE) HTRF assay, human UAE
Settings: 0.111 μM compound

Row | Structure (SMILES) | % inhibition @0.111 μM [%]
1 | NS(=O)(=O)OC[C@H]1C[C@@H](Nc2ccnc3cc(-c4cccc5c(F)cccc45)nn23)[C@H](O)[C@@H]1O [Compound I-105, (s.e.)-((1R,2R,3S,4R)-4-(2-(5-fluoronaphthalen-1-yl)pyrazolo[1,5-a]pyrimidin-7-ylamino)-2,3-dihydroxycyclopentyl)methyl sulfamate] | 100
2 | NS(=O)(=O)OC[C@H]1C[C@@H](Nc2ccnc3cc(-c4cccc5c(F)cccc45)nn23)[C@H](O)[C@@H]1O (relative stereo) [Compound I-097, (rac)-((1R,2R,3S,4R)-4-(2-(5-fluoronaphthalen-1-yl)pyrazolo[1,5-a]pyrimidin-7-ylamino)-2,3-dihydroxycyclopentyl)methyl rel-sulfamate] | 100
